Data on one substance can be found in patent US7282589B2, “Acid addition salt of optically active piperidine compound and process for preparing the same” (UBE Industries, Ltd., priority 1996, dated 2007).

A short description of the series: Experiment 1: crystallization of acid addition salts of (S)-piperidine compound (I). In kind it is physicochemical. The following applies: acid molar ratio 1. The procedure: (S)-Piperidine compound of the formula (I) was dissolved in an organic solvent, and after adding an acid shown in Table 3 to make a uniform solution, the mixture was allowed to stand. When no precipitate is obtained, after the solvent was removed, a less polar solvent was added to the residue and the mixture was allowed to stand again. Except for the case where the acid addition salt is oily or syrupy, the obtained solid material was collected by filtration and dried under reduced pressure. Characteristics of the resulting various kinds of acid addition salts are oily product or hygroscopic crystals for the most of the cases as shown in Table 3.

On to Succinic acid, for which the “Characteristics of acid addition salt” value is “Oily product”.
